Activity calls are given as the source filed them. The rule behind the calls is not given here.
What follows are compounds tested against T1, Histone deacetylase 8 (Homo sapiens) (UniProt Q9BY41) (assay: Inhibition of HDAC8 (unknown origin) up to 1 uM incubated at 37 degC for 30 mins).
T1 sequence (whole entry): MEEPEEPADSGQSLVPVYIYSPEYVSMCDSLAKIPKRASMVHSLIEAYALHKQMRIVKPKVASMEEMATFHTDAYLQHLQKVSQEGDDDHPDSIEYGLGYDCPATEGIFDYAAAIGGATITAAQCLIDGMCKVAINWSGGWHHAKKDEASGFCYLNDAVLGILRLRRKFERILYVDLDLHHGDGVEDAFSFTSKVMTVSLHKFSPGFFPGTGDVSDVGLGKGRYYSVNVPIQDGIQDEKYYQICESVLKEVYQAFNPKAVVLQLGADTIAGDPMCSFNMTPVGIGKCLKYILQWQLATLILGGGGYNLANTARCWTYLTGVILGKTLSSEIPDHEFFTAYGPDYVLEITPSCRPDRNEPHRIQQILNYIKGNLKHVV

| inhibition | Structure (SMILES) |
| --- | --- |
| inactive | C[C@@]12CSC(=N1)c1csc(n1)CNC(=O)C[C@@H](/C=C/CCS)OC(=O)[C@H](CCN)NC2=O |
| inactive | C[C@@]12CSC(=N1)c1csc(n1)CNC(=O)C[C@@H](/C=C/CCS)OC(=O)[C@H](CC(=O)O)NC2=O |
| inactive | C[C@@]12CSC(=N1)c1csc(n1)CNC(=O)C[C@@H](/C=C/CCS)OC(=O)[C@H](Cc1ccccc1)NC2=O |

— ChEMBL document CHEMBL3352389, “Evaluation of class I HDAC isoform selectivity of largazole analogues” (Bioorg Med Chem Lett, 2014)
